How the values were obtained:
18f-NLuc reporter virus = format: cell-based, Hepatitis A virus
Huh-7.5.1 cells = test: Cell viability in the chemical screen (Cell TiterGlo); conditions: 10 µM compound, 72 h

## Interferon-γ
18f-NLuc reporter virus
  Normalized HAV production: 0.14
Huh-7.5.1 cells
  Viability Percent DMSO: 78 Percent DMSO

Reference: publication PMC12282101, “Heat shock protein 90 chaperone activity is required for hepatitis A virus replication” (Journal of Virology, 2025)
